The values below come from PubChem BioAssay AID622 (Vanderbilt High Throughput Screening Facility, 2007).

Sequences of proteins named here, by UniProt entry; tags and fusion partners are left off.
UniProt P62483, whole entry: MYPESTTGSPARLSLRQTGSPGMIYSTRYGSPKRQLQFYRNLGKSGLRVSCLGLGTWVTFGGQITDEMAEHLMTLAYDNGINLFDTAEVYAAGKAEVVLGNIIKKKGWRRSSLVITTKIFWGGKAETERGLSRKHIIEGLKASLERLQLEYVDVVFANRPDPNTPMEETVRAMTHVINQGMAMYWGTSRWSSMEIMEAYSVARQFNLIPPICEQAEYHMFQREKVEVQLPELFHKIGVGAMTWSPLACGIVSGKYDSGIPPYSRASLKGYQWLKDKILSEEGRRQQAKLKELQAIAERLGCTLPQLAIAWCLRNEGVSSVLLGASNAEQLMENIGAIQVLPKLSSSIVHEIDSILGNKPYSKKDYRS

This is a selection; strong and weak results do not stand in their true shares. The source made the active and inactive calls.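 Rule for the calls: active = fluorescence slope higher than the sample average by over 3 SD (cut at about -0.22 in these data, passing the limit was not always enough); inactive = the rest.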

The target in the test is Voltage-gated potassium channel subunit beta-2 (Rattus norvegicus) (UniProt P62483). The experiment in a line: inhibitors of rat Kvbeta2 reductase activity – biochemical, NADPH fluorescence, primary screen (AID 622).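 Note: slope of raw intensity against log time taken from 70 to 1610 s.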 To be noted: recombinant KvBeta, 4-cyanobenzaldehyde reduction, at 10 µM, hits give high values.
For the compound `Fc1ccccc1NC1CCN(Cc2ccccc2)CC1`, the fluorescence slope is inactive: -0.468.
